As usually defined, the Kd is the equilibrium constant for the complex coming apart.

We go through one compound from patent US10828309B2, “Dermocosmetic or pharmaceutical use of a composition comprising at least one inhibitor of some chemoattractant cytokines” (GREENPHARMA, priority 2014, dated 2020).

Like-named read-outs stand apart in the source and are kept apart here. Some results are limits rather than exact numbers.

This assay addresses T1, CCL17 (Homo sapiens, UniProt Q92583).
T1 sequence (Q92583 24-94): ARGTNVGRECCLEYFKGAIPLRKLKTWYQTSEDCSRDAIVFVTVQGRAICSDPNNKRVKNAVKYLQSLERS
Description: Interaction affinity with CCL17 by fluorescence extinction of tryptophan residues. The settings on record: CCL17 1.5 μm, 20° C., biphasic titration curve. The format is binding. As for the experimental part: Briefly: the fluorescence measurements are carried out on a spectrofluorimeter Fluorolog 3 (JobinYvon/Spex) in a quartz cuvette. […] The measurements are carried out at 20° C. and the solutions are stirred using a magnetic stir bar. The recorded emission spectra are corrected by subtraction of the emission spectrum of the compound to be tested alone.

As to `CC(C)=CCn1cnc2c1c(=O)n(C)c(=O)n2C` [GPN279, 3,7-dihydro-1,3-dimethyl-7-(3-methyl-2-butenyl)-1H-purin-2,6-dione], the Kd by setting is: (read-out: KD for the site of high affinity) less than 0.05 µM; (read-out: KD for the site(s) of low affinity) 57 µM.
